Measurements as given in the NIST ThermoML archive (doi:10.1016/j.fluid.2016.02.009).
± gives the expanded uncertainty stated by the source.

Conditions: Liquid, Vibrating tube method

## CCCCOCCCC [dibutyl ether]
308.15 K, 100 kPa
  mass density: 755.41 ± 0.3 kg/m3
308.15 K, 5000 kPa
  mass density: 760.14 ± 0.33 kg/m3
308.15 K, 10000 kPa
  mass density: 764.73 ± 0.36 kg/m3
308.15 K, 15000 kPa
  mass density: 769.04 ± 0.39 kg/m3
308.15 K, 20000 kPa
  mass density: 773.17 ± 0.43 kg/m3
308.15 K, 25000 kPa
  mass density: 777.08 ± 0.46 kg/m3
308.15 K, 30000 kPa
  mass density: 780.86 ± 0.49 kg/m3
308.15 K, 35000 kPa
  mass density: 784.45 ± 0.53 kg/m3
308.15 K, 40000 kPa
  mass density: 787.91 ± 0.56 kg/m3
308.15 K, 45000 kPa
  mass density: 791.25 ± 0.6 kg/m3
308.15 K, 50000 kPa
  mass density: 794.48 ± 0.63 kg/m3
308.15 K, 55000 kPa
  mass density: 797.62 ± 0.67 kg/m3
308.15 K, 60000 kPa
  mass density: 800.63 ± 0.7 kg/m3
308.15 K, 65000 kPa
  mass density: 803.58 ± 0.73 kg/m3
318.15 K, 100 kPa
  mass density: 746.7 ± 0.3 kg/m3
318.15 K, 5000 kPa
  mass density: 751.63 ± 0.33 kg/m3
318.15 K, 10000 kPa
  mass density: 756.5 ± 0.36 kg/m3
318.15 K, 15000 kPa
  mass density: 761.07 ± 0.4 kg/m3
318.15 K, 20000 kPa
  mass density: 765.43 ± 0.43 kg/m3
318.15 K, 25000 kPa
  mass density: 769.53 ± 0.47 kg/m3
318.15 K, 30000 kPa
  mass density: 773.46 ± 0.5 kg/m3
318.15 K, 35000 kPa
  mass density: 777.24 ± 0.54 kg/m3
318.15 K, 40000 kPa
  mass density: 780.87 ± 0.58 kg/m3
318.15 K, 45000 kPa
  mass density: 784.34 ± 0.61 kg/m3
318.15 K, 50000 kPa
  mass density: 787.7 ± 0.65 kg/m3
318.15 K, 55000 kPa
  mass density: 790.93 ± 0.68 kg/m3
318.15 K, 60000 kPa
  mass density: 794.06 ± 0.71 kg/m3
318.15 K, 65000 kPa
  mass density: 797.14 ± 0.75 kg/m3
323.15 K, 100 kPa
  mass density: 742.29 ± 0.3 kg/m3
323.15 K, 5000 kPa
  mass density: 747.39 ± 0.33 kg/m3
323.15 K, 10000 kPa
  mass density: 752.4 ± 0.37 kg/m3
323.15 K, 15000 kPa
  mass density: 757.08 ± 0.4 kg/m3
323.15 K, 20000 kPa
  mass density: 761.57 ± 0.43 kg/m3
323.15 K, 25000 kPa
  mass density: 765.77 ± 0.47 kg/m3
323.15 K, 30000 kPa
  mass density: 769.82 ± 0.5 kg/m3
323.15 K, 35000 kPa
  mass density: 773.67 ± 0.54 kg/m3
323.15 K, 40000 kPa
  mass density: 777.34 ± 0.58 kg/m3
323.15 K, 45000 kPa
  mass density: 780.89 ± 0.62 kg/m3
323.15 K, 50000 kPa
  mass density: 784.31 ± 0.65 kg/m3
323.15 K, 55000 kPa
  mass density: 787.61 ± 0.69 kg/m3
323.15 K, 60000 kPa
  mass density: 790.8 ± 0.72 kg/m3
323.15 K, 65000 kPa
  mass density: 793.92 ± 0.75 kg/m3
328.15 K, 100 kPa
  mass density: 737.85 ± 0.3 kg/m3
328.15 K, 5000 kPa
  mass density: 743.06 ± 0.33 kg/m3
328.15 K, 10000 kPa
  mass density: 748.22 ± 0.37 kg/m3
328.15 K, 15000 kPa
  mass density: 753.05 ± 0.4 kg/m3
328.15 K, 20000 kPa
  mass density: 757.64 ± 0.44 kg/m3
328.15 K, 25000 kPa
  mass density: 761.95 ± 0.47 kg/m3
328.15 K, 30000 kPa
  mass density: 766.06 ± 0.51 kg/m3
328.15 K, 35000 kPa
  mass density: 770.02 ± 0.55 kg/m3
328.15 K, 40000 kPa
  mass density: 773.78 ± 0.59 kg/m3
328.15 K, 45000 kPa
  mass density: 777.42 ± 0.62 kg/m3
328.15 K, 50000 kPa
  mass density: 780.92 ± 0.66 kg/m3
328.15 K, 55000 kPa
  mass density: 784.25 ± 0.7 kg/m3
328.15 K, 60000 kPa
  mass density: 787.5 ± 0.73 kg/m3
328.15 K, 65000 kPa
  mass density: 790.65 ± 0.76 kg/m3
333.15 K, 100 kPa
  mass density: 733.4 ± 0.3 kg/m3
333.15 K, 5000 kPa
  mass density: 738.78 ± 0.33 kg/m3
333.15 K, 10000 kPa
  mass density: 744.06 ± 0.37 kg/m3
333.15 K, 15000 kPa
  mass density: 749.04 ± 0.4 kg/m3
333.15 K, 20000 kPa
  mass density: 753.72 ± 0.44 kg/m3
333.15 K, 25000 kPa
  mass density: 758.2 ± 0.48 kg/m3
333.15 K, 30000 kPa
  mass density: 762.39 ± 0.51 kg/m3
333.15 K, 35000 kPa
  mass density: 766.45 ± 0.55 kg/m3
333.15 K, 40000 kPa
  mass density: 770.3 ± 0.59 kg/m3
333.15 K, 45000 kPa
  mass density: 773.98 ± 0.63 kg/m3
333.15 K, 50000 kPa
  mass density: 777.5 ± 0.67 kg/m3
333.15 K, 55000 kPa
  mass density: 780.96 ± 0.7 kg/m3
333.15 K, 60000 kPa
  mass density: 784.27 ± 0.74 kg/m3
333.15 K, 65000 kPa
  mass density: 787.49 ± 0.77 kg/m3
